In US11565264B2, “Expandable arrays and methods of use” (Rutgers, The State University of New Jersey, priority 2018, dated 2023):

Test system: U87 spheres
Details: PEGDA250 at 7.2 μM; spheres cultured one week
From the text: FIG. 15A illustrates the results of the cell titer glo assay that utilizes ATP levels and was used to determine GBM viability in the presence of component biomaterials. FIGS. 15B and 15C are low-power images of bright fields of spheres cultured for one week in the presence of the indicated chemicals and concentrations. The insets are higher power (20×) magnification of the 5× images.

poly (Ethylene glycol) diacrylate 250 [PEGDA250]
cell viability (ATP levels, cell titer glo): significant loss of cell viability
